Where only a bound is given, the exact number is not on record here.

The chains behind the UniProt entries cited, without tags or fusion partners.
UniProt P35222, whole entry: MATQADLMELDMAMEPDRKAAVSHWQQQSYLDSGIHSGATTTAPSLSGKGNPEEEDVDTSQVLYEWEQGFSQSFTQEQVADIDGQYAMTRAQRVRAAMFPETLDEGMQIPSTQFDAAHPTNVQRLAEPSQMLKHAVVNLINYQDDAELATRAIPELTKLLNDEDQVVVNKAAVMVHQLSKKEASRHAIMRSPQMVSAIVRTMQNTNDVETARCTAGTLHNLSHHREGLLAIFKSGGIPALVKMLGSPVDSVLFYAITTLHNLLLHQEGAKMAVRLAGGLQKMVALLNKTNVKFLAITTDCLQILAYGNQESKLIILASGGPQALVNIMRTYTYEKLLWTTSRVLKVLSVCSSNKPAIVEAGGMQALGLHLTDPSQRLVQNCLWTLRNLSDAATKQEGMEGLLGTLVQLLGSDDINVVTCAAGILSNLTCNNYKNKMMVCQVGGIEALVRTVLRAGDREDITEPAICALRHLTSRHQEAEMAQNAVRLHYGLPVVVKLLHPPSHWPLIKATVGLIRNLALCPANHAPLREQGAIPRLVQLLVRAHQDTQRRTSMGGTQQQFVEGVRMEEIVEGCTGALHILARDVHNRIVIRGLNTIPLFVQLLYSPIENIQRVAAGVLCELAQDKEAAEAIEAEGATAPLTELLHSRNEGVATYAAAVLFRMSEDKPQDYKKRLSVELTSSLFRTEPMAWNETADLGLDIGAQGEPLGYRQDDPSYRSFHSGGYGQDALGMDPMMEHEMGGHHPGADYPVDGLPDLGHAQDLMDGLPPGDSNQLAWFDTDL

These results are taken from patent US20240360179A1, “STAPLED PEPTIDES AND METHODS THEREOF” (FOG PHARMACEUTICALS, INC., priority 2021, published 2024).

The target of the assay is T1, full-length B-Catenin (Uniprot ID P35222) (Homo sapiens, UniProt P35222).
T1 construct: 10 nM full-length B-Catenin (Uniprot ID P35222)
Format: binding. As to conditions: competition fluorescence polarization; read-out: beta-Catenin FP IC50. On the technique in general: Fluorescence polarisation rises when a labelled molecule tumbles more slowly, as on binding a larger partner.
Usually IC50 stands for the point on the concentration scale where inhibition reaches its midpoint. Regarding “Ac-S5-Ala-Asp-Npg-B5-Ser-3COOHF-Aib-Ala-Phe-Lys*3-PyrS2-3Thi-BztA-GlnR*3-Ala-NH2 [I-1203]”, the IC50 was 200 to 750 nM.

Regarding “Ac-PL3-Asp-Npg-B5-Asp-3COOHF-Aib-Ala-Phe-[mPyr]Cys-PyrS2-3Thi-BztA-hCys-Ala-NH2 [I-1461]”, the IC50 was under 50 nM. Next, “Ac-S5-Ala-Asp-Npg-B5-Ser-3COOHF-Aib-Ala-Phe-Lys*3-PyrS2-3Thi-BztA-GlnR*3-Ala-NH2 [I-1204]”: over 1000 nM. To “Ac-PL3-Asp-Npg-B5-Asp-3COOHF-Aib-Ala-Phe-TriAzLys*3-[4VinylBzt]PyrSa-3Thi-BztA-sAla*3-Ala-NH2 [I-1437]” belongs 50 to 200 nM; to “Ac-PL3-Asp-Npg-B5-Asp-3COOHF-Asn-Ala-Phe-Lys*3-PyrS2-3Thi-BztA-GlnR*3-Ala-NH2 [I-394]”, under 50 nM.

Take “Ac-PL3-Asp-Leu-B5-Asp-3COOHF-GlnPip4AE*3-Ala-Phe-Ala-PyrS2-Phe-34ClF-GlnR*3-NH2 [I-1923]”: the concentration for half-maximal inhibition (IC50) is under 50 nM. For the substance “Ac-S6-MePro-Asp-Npg-B5-Asp-3COOHF-Aib-Ala-Phe-Lys*3-PyrS2-Phe-34ClF-GlnR*3-NH2 [I-1524]”, the IC50 is 50 to 200 nM. To “Ac-PL3-Asp-Ile-B5-Asp-3COOHF-Aib-Ala-Phe-Lys*3-PyrS2-Phe-34ClF-GlnR*3-Ala-Ala-Ala-[mPEG4]Lys-NH2 [I-1411]” belongs under 50 nM; to “Ac-PL3-Asp-Npg-B5-Asp-3COOHF-Ala-Ala-Phe-Lys*3-PyrS2-Phe-BztA-GlnR*3-NH2 [I-1243]”, under 50 nM; to “Ac-PL3-Asn-DipA-B5-Asp-3COOHF-CyLeu-Ala-Phe-Lys*3-PyrS2-3Thi-34ClF-GlnR*3-NH2 [I-1630]”, under 50 nM. Next, “Ac-PL3-Asp-Ile-B5-Asp-3COOHF-Aib-Ala-Phe-TriAzLys*3-PyrS2-3Thi-34ClF-sAla*3-NH2 [I-1089]”: under 50 nM. As to “Ac-PL3-Asp-DipA-B5-Asp-3COOHF-CyLeu-Ala-Phe-Lys*3-PyrS2-2F3MeF-34ClF-GlnR*3-Ser-NH2 [I-1771]”, the concentration for half-maximal inhibition (IC50) was under 50 nM.

Regarding “Ac-PL3-Asp-DipA-B5-Asp-3COOHF-Ala-Ala-Phe-Lys*3-PyrS2-Phe-BztA-GlnR*3-dVal-NH2 [I-1848]”, the half-maximal inhibitory concentration (IC50) was under 50 nM. As to “Ac-PL3-Asp-Ile-B5-Asp-3COOHF-Aib-Ala-Phe-Lys*3-PyrS2-Phe-34ClF-GlnR*3-Ala-Ala-Ala-[Ac]Lys-NH2 [I-1395]”, the half-maximal inhibitory concentration (IC50) was under 50 nM.

Turning to “Ac-PL3-Asp-Npg-B5-Asp-3COOHF-Aib-Ala-Phe-Lys*3-PyrS2-2FF-34ClF-GlnR*3-NH2 [I-1537]”, the IC50 is under 50 nM. Next, “Ac-PL3-Asp-Npg-B5-Asp-3COOHF-Aib-Ala-Phe-Lys+3-PyrS2-[3PyAc]2NH2F-BztA-GlnR*3-Ala-NH2 [I-1670]”: under 50 nM. To “Ac-S5-Ala-Asp-Cha-B5-Asp-3COOHF-Aib-Ala-Phe-Lys*3-PyrS1-Phe-34ClF-GlnR*3-NH2 [I-1626]” belongs under 50 nM.

Take “Ac-PL3-Asp-Ile-B5-Asp-3COOHF-Aib-Ala-Phe-Lys*3-PyrS2-Phe-34ClF-GlnR*3-Val-Thr-Ala-NH2 [I-1256]”: the IC50 was under 50 nM.

On to “Ac-PL3-Asp-Leu-B5-Asp-3COOHF-GlnR*3-Ala-Phe-Val-PyrS2-Phe-34ClF-GlnMeBDA*3-NH2 [I-1829]”, for which the IC50 is under 50 nM.

Take “Ac-PL3-Asp-Ile-B5-Asp-3COOHF-Ala-Ala-Phe-TriAzLys*3-PyrS2-Phe-34ClF-sCH2S*3-NH2 [I-1865]”: the IC50 was under 50 nM. To “Ac-Pro-Ala-S5-Ala-Asp-Npg-B5-Asp-3COOHF-Aib-Ala-Phe-Lys*3-PyrS2-3Thi-BztA-GlnR*3-Ala [I-1286]” belongs 50 to 200 nM; to “Ac-PL3-Asp-Npg-B5-Asp-3COOHF-Aib-Ala-Phe-Lys*3-PyrS2-3Thi-BztA-GlnR*3-Ala-Ala-Ala-Leu-Leu-Leu-NH2 [I-810]”, 50 to 200 nM; to “Ac-PL3-Asn-DipA-B5-Asp-3COOHF-nLeu-Ala-Phe-Lys*3-PyrS2-3Thi-BztA-GlnR*3-NH2 [I-1680]”, under 50 nM. Turning to “Ac-PL3-Asp-Npg-B5-Asp-3COOHF-Aib-Ala-4MeF-Lys*3-PyrS2-3Thi-BztA-GlnR*3-Ala-NH2 [I-589]”, the IC50 is under 50 nM. As to “Ac-PL3-Asp-Leu-B5-Asp-3COOHF-GlnR*3-Ala-Phe-Leu-PyrS2-Phe-34ClF-Gln6DA*3-NH2 [I-1833]”, the IC50 was under 50 nM. To “Ac-PL3-Asp-Chg-B5-Asp-3COOHF-CyLeu-Ala-Phe-Lys*3-PyrS2-2ClF-34ClF-GlnR*3-NH2 [I-1507]” belongs under 50 nM; to “Ac-PL3-Asp-Ile-B5-Asp-3COOHF-Aib-Ala-Phe-GlnR*3-PyrS2-Phe-34ClF-AsnEDA*3-NH2 [I-1376]”, under 50 nM. To “Ac-PL3-Asp-Npg-B5-Asp-3COOHF-Aib-Ala-Phe-Lys*3-PyrS2-3Thi-BztA-GlnR*3-Thr-Ser-Ala-NH2 [I-1472]” belongs under 50 nM. Next, “Ac-PL3-Asp-Npg-B5-Asp-[SaiPrSuc]Dap-Aib-Ala-Phe-Lys*3-PyrS2-3Thi-BztA-GlnR*3-Ala-NH2 [I-1434]”: under 50 nM; “Ac-PL3-Asp-Ile-B5-Asp-3COOHF-GlnR*3-Ala-Phe-Val-PyrS2-Phe-34ClF-GlnMePDA*3-NH2 [I-1804]”: 200 to 750 nM. For the substance “Ac-PL3-Asp-Npg-B5-Asp-3COOHF-Aib-Ala-Phe-Lys*3-PyrS2-HepG-BztA-GlnR*3-Ala-NH2 [I-938]”, the IC50 fell in the range of 50 to 200 nM. Next, “NPyroR3-Asp-Npg-B5-Asp-3COOHF-Aib-Ala-Phe-Lys*3-PyrS2-3Thi-BztA-GlnR*3-Ala-NH2 [I-1489]”: under 50 nM; “Ac-PL3-Asp-Ile-B5-Asp-3COOHF-Phe-Ala-Phe-Lys*3-PyrS2-Phe-34MeF-GlnR*3-NH2 [I-1107]”: under 50 nM. Next, “8IAP-PL3-Asp-Npg-B5-Asp-3COOHF-Aib-Ala-Phe-Lys*3-PyrS2-3Thi-BztA-GlnR*3-Ala-NH2 [I-906]”: under 50 nM. As for “Ac-S5-Ala-Asp-Npg-B5-TfeGA-Asp-Aib-Ala-Phe-Lys*3-PyrS2-3Thi-BztA-GlnR*3-Ala-NH2 [I-1331]”, the half-inhibitory concentration (IC50) is over 1000 nM. Next, “Ac-PL3-Asp-Npg-B5-Asp-3COOHF-Aib-Ala-Phe-Lys*3-PyrS2-[3PyPrpc]2NH2F-BztA-GlnR*3-Ala-NH2 [I-1742]”: under 50 nM; “Ac-PL3-Asp-Ile-B5-Asp-3COOHF-Ala-Ala-Phe-Lys*3-PyrS2-2MeF-34ClF-GlnR*3-NH2 [I-1510]”: 200 to 750 nM; “Ac-PL3-isoDGlu-Npg-B5-Asp-3COOHF-Aib-Ala-Phe-Lys*3-PyrS2-3Thi-BztA-GlnR*3-Ala-NH2 [I-960]”: over 1000 nM. As for “CF3CO-PL3-Asn-DipA-B5-Asp-3COOHF-CyLeu-Ala-Phe-Lys*3-PyrS2-3Thi-34ClF-GlnR*3-NH2 [I-1729]”, the IC50 was under 50 nM. Next, “Ac-PL3-Asp-Cha-B5-Asp-3COOHF-Ala-Ala-Phe-Lys*3-PyrS2-2MeF-34ClF-GlnR*3-NH2 [I-1516]”: 200 to 750 nM; “Ac-S6-Glu-Asp-DipA-B5-Asp-3COOHF-Aib-Ala-Phe-Lys*3-PyrS1-Phe-34ClF-GlnR*3-Val-NH2 [I-1933]”: under 50 nM; “Ac-Pro-S5-Ala-Asp-Leu-B5-Asp-3COOHF-Aib-Ala-Phe-Lys*3-PyrS1-Phe-34ClF-GlnR*3-NH2 [I-1883]”: under 50 nM. Next, “Ac-PL3-Asp-Ile-B5-Asp-3COOHF-Ala-Ala-Phe-Lys*3-PyrS2-Phe-34ClF-GlnR*3-NH2 [I-1697]”: under 50 nM. Next, “Ac-PL3-Asp-Npg-B5-Asp-3COOHF-Aib-Ala-Phe-Lys*3-PyrS2-Phe-7FBztA-GlnR*3-Ala-NH2 [I-1247]”: under 50 nM; “Ac-PL3-Asp-Npg-B5-Asp-3COOHF-Aib-Ala-Phe-[IsoE]hCys-PyrS2-3Thi-BztA-aMeC-Ala-NH2 [I-1429]”: under 50 nM. In the case of “Ac-PL3-Asp-Ile-B5-Asp-3COOHF-Aib-Ala-Phe-Lys*3-PyrS2-DipA-34ClF-GlnR*3-NH2 [I-1535]”, the IC50 was in the range of 50 to 200 nM.

Turning to “Ac-PL3-Asp-Npg-B5-Asp-TfeGA-Aib-Ala-Phe-Lys*3-PyrS2-Phe-34ClF-GlnR*3-NH2 [I-884]”, the IC50 is under 50 nM. Next, “Ac-S6-Glu-Asp-DipA-B5-Asp-3COOHF-Leu-Ala-Phe-Lys*3-PyrS1-3Thi-BztA-GlnR*3-NH2 [I-1932]”: under 50 nM; “NPyroR3-Asn-Npg-B5-Asp-3COOHF-Aib-Ala-Phe-Lys*3-PyrS2-3Thi-34ClF-GlnR*3-NH2 [I-1557]”: 200 to 750 nM. Next, “Ac-PL3-Asp-Npg-B5-Asp-TfeGA-Aib-Ala-Phe-Lys*3-PyrS2-3Thi-34ClF-GlnR*3-Leu-Ser-NH2 [I-883]”: under 50 nM; “Ac-PL3-Asp-Leu-B5-Asp-3COOHF-GlnT4CyMe*3-Ala-Phe-Leu-PyrS2-Phe-34ClF-GlnR*3-NH2 [I-1836]”: under 50 nM; “Ac-PL3-Asp-Npg-B5-Asp-3COOHF-[Me2ethylenediamine]GlnR-Ala-Phe-Leu-PyrS2-2F3MeF-BztA-GlnR-NH2 [I-702]”: 50 to 200 nM. Take “Ac-PL3-Asp-Npg-B5-Asp-3COOHF-Aib-Ala-Phe-Lys*3-PyrS2-[2PyCypCO]2NH2F-BztA-GlnR*3-Ala-NH2 [I-1672]”: the IC50 was under 50 nM. To “Ac-PL3-Asp-Npg-B5-Asp-3COOHF-Aib-Ala-3FF-Lys*3-PyrS2-3Thi-BztA-GlnR*3-Ala-NH2 [I-575]” belongs under 50 nM. Turning to “Ac-PL3-Asp-Npg-B5-Asp-3COOHF-Aib-Ala-Phe-TriAzLys*3-[2Me4VinPhAc2]PyrSa-3Thi-BztA-sAla*3-Ala-NH2 [I-1449]”, the IC50 was in the range of 50 to 200 nM. As for “Ac-PL3-Asp-DipA-B5-Asp-3COOHF-nLeu-Ala-Phe-Lys*3-PyrS2-3Thi-34ClF-GlnR*3-NH2 [I-1634]”, the IC50 was under 50 nM. “Ac-PL3-Asp-Npg-B5-Asp-3COOHF-Aib-Ala-Phe-Lys*3-PyrS2-3Thi-BztA-GlnR*3-Ala-Ala-Ala-Leu-Leu-NH2 [I-808]”: the half-maximal inhibitory concentration (IC50) lay within 50 to 200 nM. In the case of “Ac-S5-Ala-Asp-Ile-B5-Asp-Ser-Aib-Ala-Phe-Lys*3-PyrS2-Phe-34ClF-GlnR*3-NH2 [I-1341]”, the IC50 was in the range of 200 to 750 nM. Take “Ac-S5-Ala-Asp-Ala-B5-Asp-3COOHF-Aib-Ala-Phe-Lys*3-PyrS2-Phe-34ClF-GlnR*3-Ala-NH2 [I-1235]”: the half-maximal inhibitory concentration (IC50) was under 50 nM.
